PubChem BioAssay AID1347131 (National Center for Advancing Translational Sciences (NCATS), 2019)
Among all 410,000 compounds or so, about 2,000 (0.49%) were called active. Listed are the inconclusive results; actives and inactives stand elsewhere. The call rests on the fitted dose curve; tested in HEK293 reporter line.

Assay: qHTS Assay for Foot and Mouth Disease Virus Antivirals: Primary Screen against the MLPCN compound library; further: nearly all actives have a fitted effect of over 55% in size
Conditions: FMDV antiviral cell-based qHTS
Potency means the concentration at half of the fitted maximal effect.

SMILES	Potency
CC(C)(C)C(=O)NC(Sc1ccncn1)C(Cl)(Cl)Cl (stereo unspecified)	inconclusive: 2240 nM
